# Measured affinities in a library of Ab-91 heavy chain variants

Data: MIT Lincoln Laboratory AlphaSeq set, Engelhart et al. 2022, doi:10.1038/s41597-022-01779-4, as distributed in FLAb.

All variants were tested on one target, the spike HR2 peptide PDVDLGDISGINAS (SARS-CoV-2).

The variants keep the light chain, the linker and the frameworks of Ab-91 (scFv order VL, a 15-residue (Gly4Ser)3 linker, VH).
VL: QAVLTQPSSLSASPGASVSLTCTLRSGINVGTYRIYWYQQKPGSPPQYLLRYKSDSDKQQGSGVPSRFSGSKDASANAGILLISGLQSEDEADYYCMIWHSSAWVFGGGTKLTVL
VH: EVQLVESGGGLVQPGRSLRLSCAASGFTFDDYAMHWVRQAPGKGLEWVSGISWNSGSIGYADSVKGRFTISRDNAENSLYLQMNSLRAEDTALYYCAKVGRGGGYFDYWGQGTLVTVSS

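The parent was found by panning a naive human phage display library on the peptide. Library AAYL51 holds single substitutions and randomly drawn double and triple substitutions in the CDRs. Affinity was read by AlphaSeq, a pooled yeast mating assay with surface-displayed partners. The frequency of each diploid, read from paired DNA barcodes, reflects how well the two displayed proteins bind. Each replicate has its own calibration line, from reference interactions of the BCL2 family. The assay was run in three technical replicates.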

Each variant's VH is given in full. Values are log10 of the apparent Kd in nM; lower means stronger binding. "ND" means that the variant was in the library but no mating with the target was seen in that replicate; the authors take this as a sign of poor binding, and no number exists.

{"VH": "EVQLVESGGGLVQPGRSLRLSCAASGFTFDDYAMHWVRQAPGKGLEWVSGISWNSGSIGYADSVKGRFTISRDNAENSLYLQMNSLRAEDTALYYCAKVGRTGGYFDGWGQGTLVTVSS", "log10 Kd, replicates": "4.21 4.66 5.02", "control signals": "6 of 9 (4.91)"}
{"VH": "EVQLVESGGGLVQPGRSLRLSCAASGWTFDGPAMHWVRQAPGKGLEWVSGISWNSGSIGYADSVKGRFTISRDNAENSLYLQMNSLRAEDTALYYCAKVGRGGGYFDYWGQGTLVTVSS", "log10 Kd, replicates": "ND ND ND", "control signals": "1 of 9 (3.88)"}
{"VH": "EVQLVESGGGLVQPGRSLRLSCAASGFTFDDYAGHWVRQAPGKGLEWVSGISWNSGSIGYADWVKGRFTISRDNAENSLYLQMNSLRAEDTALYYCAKVGRGGTYFDYWGQGTLVTVSS", "log10 Kd, replicates": "4.77 6.49 4.88", "control signals": "6 of 9 (5.16)"}
{"VH": "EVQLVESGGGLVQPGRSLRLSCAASGFTFDDYACHWVRQAPGKGLEWVSGISENSCSIGYADSVKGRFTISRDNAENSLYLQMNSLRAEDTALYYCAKVGRGGGYFDYWGQGTLVTVSS", "log10 Kd, replicates": "4.88 ND 5.39", "control signals": "4 of 9 (4.21)"}
{"VH": "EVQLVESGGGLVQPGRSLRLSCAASGFTFDDWAMHWVRQAPGKGLEWVSGISWNSGSIGYADIVKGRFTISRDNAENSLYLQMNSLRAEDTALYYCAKVYRGGGYFDYWGQGTLVTVSS", "log10 Kd, replicates": "ND 5.32 ND", "control signals": "1 of 9 (4.12)"}
{"VH": "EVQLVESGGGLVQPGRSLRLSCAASGFTFDPYAMHWVRQAPGKGLEWVSGISWNSGSIGGADSVKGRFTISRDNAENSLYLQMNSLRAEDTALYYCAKVGVGGGYFDYWGQGTLVTVSS", "log10 Kd, replicates": "4.81 ND ND", "control signals": "4 of 9 (4.55)"}
{"VH": "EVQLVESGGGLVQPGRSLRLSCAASGFTFDDYAMHWVRQAPGKGLEWVSGISCNSGSIQYADSVKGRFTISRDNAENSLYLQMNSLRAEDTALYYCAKVGRGGGYFDGWGQGTLVTVSS", "log10 Kd, replicates": "ND 6.21 ND", "control signals": "4 of 9 (4.70)"}
{"VH": "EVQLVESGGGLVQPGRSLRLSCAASGFTFDDYAMHWVRQAPGKGLEWVSGISWNSGSIGYADSVKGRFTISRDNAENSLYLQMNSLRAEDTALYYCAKVGRGVGYVDFWGQGTLVTVSS", "log10 Kd, replicates": "1.62 1.66 0.97", "control signals": "2 of 9 (4.96)"}
{"VH": "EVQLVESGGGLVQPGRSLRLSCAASGFTFDDYAQHWVRQAPGKGLEWVSGISWNSYSIGYADSVKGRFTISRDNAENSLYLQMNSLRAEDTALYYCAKVGRGGGYFDYWGQGTLVTVSS", "log10 Kd, replicates": "1.42 1.46 0.77", "control signals": "1 of 9 (2.80)"}
{"VH": "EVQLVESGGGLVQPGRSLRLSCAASGFVFDDYALHWVRQAPGKGLEWVSGISWNSGSIGYADSVKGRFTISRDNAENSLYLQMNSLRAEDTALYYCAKVGRGGGYNDYWGQGTLVTVSS", "log10 Kd, replicates": "4.79 ND ND", "control signals": "0 of 9"}
{"VH": "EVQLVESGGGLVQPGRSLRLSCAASGFTFDDYAMHWVRQAPGKGLEWVSGISWNSGSIGYADSVKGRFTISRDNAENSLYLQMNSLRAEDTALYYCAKMGRGWGYFDYWGQGTLVTVSS", "log10 Kd, replicates": "ND ND ND", "control signals": "1 of 9 (3.51)"}
{"VH": "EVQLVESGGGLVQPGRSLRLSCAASSFTFDDYAMHWVRQAPGKGLEWVSGISWNSGSIGYADSVKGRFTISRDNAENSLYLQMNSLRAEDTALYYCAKVGRGGGYCDQWGQGTLVTVSS", "log10 Kd, replicates": "ND ND ND", "control signals": "4 of 9 (4.30)"}
{"VH": "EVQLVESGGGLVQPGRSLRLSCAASGFTFDDYAMHWVRQAPGKGLEWVSGISWNSGSCGYADSVKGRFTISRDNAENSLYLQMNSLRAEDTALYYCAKVGRGGGYFDYWGQGTLVTVSS", "log10 Kd, replicates": "3.13 3.09 3.74", "control signals": "3 of 9 (5.20)"}
{"VH": "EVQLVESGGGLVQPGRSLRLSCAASLFTIDDWAMHWVRQAPGKGLEWVSGISWNSGSIGYADSVKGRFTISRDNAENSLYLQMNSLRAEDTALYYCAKVGRGGGYFDYWGQGTLVTVSS", "log10 Kd, replicates": "ND 4.40 4.76", "control signals": "4 of 9 (4.48)"}

A selection of 2 entries from above:

{"VH": "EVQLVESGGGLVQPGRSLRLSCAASGFTFDDYAMHWVRQAPGKGLEWVSGISWNSGSIGYADSVKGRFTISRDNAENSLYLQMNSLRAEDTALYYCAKVGRGVGYVDFWGQGTLVTVSS", "log10 Kd, replicates": "1.62 1.66 0.97", "control signals": "2 of 9 (4.96)"}
{"VH": "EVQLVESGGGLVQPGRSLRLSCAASGFTFDDYAMHWVRQAPGKGLEWVSGISWNSGSIGYADSVKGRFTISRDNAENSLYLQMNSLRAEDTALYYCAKVGRTGGYFDGWGQGTLVTVSS", "log10 Kd, replicates": "4.21 4.66 5.02", "control signals": "6 of 9 (4.91)"}

Empty control strains, which show no peptide, gave a signal in 21% of pairings with library AAYL51; the median was 4.54 and 95% of these signals were weaker than 3.26. No background was subtracted. The control count says in how many pairings with the empty strains this scFv gave a signal, with their mean in brackets. Parent in this assay: reference entry 1.86, copy in this library 0.88.